Measured values as given in patent US11045480B2, “Anti-huLRRC15 antibody drug conjugates and methods for their use” (AbbVie Inc., priority 2015, dated 2021).

Legend:
[1] = system: HN5 (head and neck) xenograft; assay: HN5 xenograft tumor growth; format: in vivo, mouse; details: HN5, NSG mice; ADC 4.5 mg/kg IP Q4D×6; erlotinib 150 mg/kg orally daily ×10; cetuximab 3 mg/kg IP Q7D×3 (FIG. 20B)
Description: In FIG. 20B, HN5 cells (5 million) were implanted subcutaneously into NSG mice, and mice were randomized when the tumor group mean volumes reached ˜200 mm^3 and dosed with isotype mAb or ADCs at 4.5 mg/kg intraperitoneally on a Q4D×6 (one dose given every 4 days for a total of 6 doses), while erlotinib was dosed orally daily for 10 days at 150 mg/kg, and cetuximab was dosed intraperitoneally Q7D×3 (one dose given every 7 days for a total of 3 doses) at 3 mg/kg.

[2] = system: SCC-15 head and neck cancer xenograft; assay: SCC-15 xenograft tumor growth; format: in vivo, mouse; details: SCC-15, SCID mice; ADCs 12 mg/kg IP Q7D×6; cetuximab 3 mg/kg IP Q7D×3 (FIG. 22B)
Description: Radiation is a commonly used cytotoxic therapy in oncology. […] SCC-15 head and neck cancer cells (1 million) were implanted subcutaneously into SCID mice, and mice were randomized when the tumors reached ˜200 mm^3 and dosed with biologics at 12 mg/kg intraperitoneally on a Q4D×6 (one dose given every 4 days for a total of 6 doses), while the radiation was directed at the tumor with a single radiation dose of 15 Gy on day 0.
SCC-15 head and neck cancer cells (1 million) were implanted subcutaneously into SCID mice, and mice were randomized when the tumors reached ˜200 mm^3 and dosed with biologics at 12 mg/kg intraperitoneally on a Q7D×6 (one dose given every 7 days for a total of 6 doses), while carboplatin was dosed intraperitoneally […] at 50 mg/kg Q4D×4 (one dose given every 4 days for a total of 4 doses).

## cetuximab [reference compound]
[1]
  TGD: 59%
  TGImax: 73%
[2]
  TGD, single agent: 58%
  TGImax, single agent: 66%
